## AlphaSeq binding of Ab-95 light chain variants to a spike HR2 peptide

The target is the same throughout: PDVDLGDISGINAS, from the HR2 region of SARS-CoV-2 spike.

Parent: Ab-95, a human scFv built as VH, a 15-residue (Gly4Ser)3 linker, VL. Only the CDRs of the light chain vary.
VH: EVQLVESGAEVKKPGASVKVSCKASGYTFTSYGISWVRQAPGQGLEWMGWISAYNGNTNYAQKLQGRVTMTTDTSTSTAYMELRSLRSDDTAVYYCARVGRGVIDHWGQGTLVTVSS
VL: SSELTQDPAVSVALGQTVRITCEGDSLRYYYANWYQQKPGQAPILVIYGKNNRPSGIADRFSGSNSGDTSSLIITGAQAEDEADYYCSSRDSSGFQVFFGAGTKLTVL

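The starting antibody came from a phage panning campaign against this peptide. Variants in AAYL52 differ from the parent at up to three CDR positions; double and triple changes were sampled at random. Affinity was read by AlphaSeq, a pooled yeast mating assay with surface-displayed partners. After mating in shaken culture at 30 °C for 16 h, diploids were selected and their barcode pairs sequenced. A regression on co-assayed BCL2-family reference pairs converts the normalised counts of each replicate to an apparent Kd. There are three technical replicates.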

The parent's light chain CDRs are EGDSLRYYYAN, GKNNRPS, SSRDSSGFQVF; each variant's own CDRs replace them letter for letter.
Scale: log10 of Kd in nM, estimated from mating counts; low values are strong binders.
Where no diploid with the target was found in that replicate, the entry reads "n.d.": below detection, most likely a poor binder, though not proof of it.
For reference, the parent read 2.31 as the reference entry and 2.25 as a member of this library.
Background: pairings of library AAYL52 with three empty control strains gave a value in 28% of cases (median 3.91, 5th percentile 2.90). Values in that range, when seen in few replicates, are hard to tell from nonspecific mating. Also given: how often the same scFv was detected with the empty control strains, with their mean in brackets.

CDR-L1,CDR-L2,CDR-L3,"replicates, log10 nM",empty controls
EGDSLRYYYAN,GKNFRPS,SSRDWSGFQVF,2.51 2.39 2.36,3 of 9 (3.40)
EGDSLRYYYAN,GKNNRPS,SSRNISGFQVP,2.42 2.34 2.03,3 of 9 (4.32)
ESDSLRYYYAN,GKNNRPM,SVRDSSGFQVF,2.15 1.92 1.79,2 of 9 (4.04)
EGDSLRYYYAP,FKNSRPS,SSRDSSGFQVF,4.10 n.d. n.d.,4 of 9 (3.62)
EGDSLRYYYAN,GKNNRES,ISRDSSGFQVF,n.d. n.d. 2.49,1 of 9 (4.67)
EGYSLYYYYAN,GKNNRPS,SSRDSSGFKVF,3.26 3.89 4.41,4 of 9 (4.37)
EGDSLRYYYAN,GKNNRPS,SSRDSSGTQVF,2.63 2.80 2.32,1 of 9 (4.34)
EGDSLRYYYAN,GKNNRPH,KSRDSSGFQVL,3.80 3.34 n.d.,1 of 9 (2.97)
EGDSLRYYYAN,GDNNRPS,TSRDSSGFQWF,2.01 2.37 2.23,4 of 9 (3.81)
EADSLRYYYAN,GKNNIPS,TSRDSSGFQVF,3.93 3.39 3.12,5 of 9 (4.01)
EGDSLDYYYAI,GKNNSPS,SSRDSSGFQVF,4.12 4.78 3.20,3 of 9 (4.45)
WGDSLRSYYAN,GKNNRPS,ASRDSSGFQVF,2.66 3.93 2.24,0 of 9
EGDSLRYYYAN,GKNNRPS,SDRDSSGVQVF,2.55 2.48 2.06,0 of 9
EGDSLRYYYNN,GFNNRPS,SSRCSSGFQVF,n.d. n.d. n.d.,1 of 9 (4.55)
EGDSLRYYYDN,GKNNRPS,KSRDSSGFQVF,3.82 n.d. n.d.,4 of 9 (3.48)
EGDSLRYYCSN,GKNNRPP,SSRDSSGFQVF,3.97 2.83 4.22,3 of 9 (4.78)
EGDLLRYYYAN,DKNNRPS,SSRDSSGWQVF,3.83 5.38 n.d.,3 of 9 (3.81)
EGDSLRYYYAN,AKQNRPS,SSRDSSGFQVF,4.38 3.63 n.d.,0 of 9
EGDSLRYWYAN,GKNNLPS,SSRDSSLFQVF,3.89 3.90 2.66,3 of 9 (4.07)
EGNSLRYIYAE,GKNNRPS,SSRDSSGFQVF,4.46 2.93 n.d.,3 of 9 (3.93)
EGDSLRYYYQS,GKNNRPR,SSRDSSGFQVF,4.67 n.d. 2.77,2 of 9 (3.60)
ERDWLDYYYAN,GKNNRPS,SSRDSSGFQVF,2.76 2.88 2.58,3 of 9 (3.93)
EGDSLRYYYAN,GKNNRPS,WSRDSSGFQVA,n.d. n.d. 3.35,2 of 9 (3.50)
EGDSLRYYRAN,GQNNRPS,SERDSSGFQVF,3.26 3.61 4.37,3 of 9 (4.23)
EGDSLRYYYTN,GKNQRPS,SSRDSSGFQVF,1.70 1.79 1.15,1 of 9 (3.27)
EGDSLRYYYAN,GKNMRPS,SSRRSSQFQVF,3.02 3.09 4.10,5 of 9 (3.99)
EGDSLRRYYAN,GKNNRPS,RSRDPSGFQVF,4.51 3.03 n.d.,4 of 9 (3.96)
EGDSLFYYWAN,GKDNRPS,SSRDSSGFQVF,4.08 n.d. 2.90,5 of 9 (4.18)
EGDSDRYYYAN,GKNRRPS,SSWDSSGFQVF,3.72 2.99 n.d.,3 of 9 (3.45)
EGASLRYYYAN,GKNNRPS,SSRDYSGFQVF,2.20 2.48 1.95,3 of 9 (3.71)
EGDRQRYYYRN,GKNNRPS,SSRDSSGFQVF,3.35 3.64 3.79,1 of 9 (3.94)
EGDSLRYRYAN,GKNFRPS,CSRDSSGFQVF,2.31 2.13 3.17,1 of 9 (3.02)
EGDSLRYYYAV,GDNNRPS,SSCDSSGFQVF,4.33 n.d. n.d.,3 of 9 (3.57)

Source: Engelhart et al. 2022 (doi:10.1038/s41597-022-01779-4), MIT Lincoln Laboratory and A-Alpha Bio; data file from the FLAb repository.